# Patent publication US6124269A, “2-Halo-6-O-substituted ketolide derivatives” (priority 1998, dated 2000)
# Tested on: Streptococcus pneumoniae 5979
# Assay: In vitro agar dilution MIC, organism code ZZ
# Format: cell-based
# Details: Table 1B, unit assumed
# Protocol: Representative compounds of the present invention were assayed in vitro for antibacterial activity as follows: Twelve petri dishes containing successive aqueous dilutions of the test compound mixed with 10 mL of sterilized Brain Heart Infusion (BHI) agar (Difco 0418-01-5) were prepared. Each plate was inoculated with 1:100 (or 1:10 for slow-growing strains, such as Micrococcus and Streptococcus) dilutions of up to 32 different microorganisms, using a Steers replicator block. The inoculated plates were incubated at 35-37° C. for 20 to 24 hours. In addition, a control plate, using BHI agar containing no test compound, was prepared and incubated at the beginning and end of each test.
# An additional plate containing a compound having known susceptibility patterns for the organisms being tested and belonging to the same antibiotic class as the test compound was also prepared and incubated as a further control, as well as to provide test-to-test comparability.
# After incubation, each plate was visually inspected. The minimum inhibitory concentration (MIC) was defined as the lowest concentration of drug yielding no growth, a slight haze, or sparsely isolated colonies on the inoculum spot as compared to the growth control.
compound,measurement,value
"CC[C@H]1OC(=O)[C@H](C)[C@@H](O[C@H]2C[C@@](C)(OC)[C@@H](O)[C@H](C)O2)[C@H](C)[C@@H](O[C@@H]2O[C@H](C)C[C@H](N(C)C)[C@H]2O)[C@](C)(O)C[C@@H](C)C(=O)[C@H](C)[C@@H](O)[C@]1(C)O [Ery. A, Erythromycin A, reference compound]",MIC,> 128 µg/mL
